## Yeast mating assay B: variants of the scFv Ab-14

The measurements come from Li et al. 2023 (doi:10.1038/s41467-023-39022-2) through the FLAb antibody collection.

Antigen: PDVDLGDISGINAS, a 14-residue peptide of the SARS-CoV-2 spike HR2 region.

The variants keep the heavy chain, the linker and the frameworks of Ab-14 (scFv order VH, a 15-residue (Gly4Ser)3 linker, VL).
VH: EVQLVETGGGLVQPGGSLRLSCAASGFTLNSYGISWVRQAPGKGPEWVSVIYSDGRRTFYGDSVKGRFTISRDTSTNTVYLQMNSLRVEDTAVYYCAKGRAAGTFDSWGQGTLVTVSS
VL: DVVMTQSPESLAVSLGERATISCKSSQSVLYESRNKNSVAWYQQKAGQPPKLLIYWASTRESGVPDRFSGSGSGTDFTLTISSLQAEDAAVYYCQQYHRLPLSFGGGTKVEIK

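The variants were designed computationally from a first round of random CDR variants and then made and measured. Their group label is 14L_Ctrl (Ctrl: baseline library sampled from a position-specific scoring matrix, with some repeated check sequences). Affinity was read by AlphaSeq, a pooled yeast mating assay with surface-displayed partners. Pairs that bind mate more often; barcode pairs of the diploids are counted by sequencing. The ratio of observed to expected reads was calibrated, replicate by replicate, on BCL2-family standards whose Kd was known from biolayer interferometry. Mating was done six times.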

Substitutions are numbered in sequence along the VL above, starting at 1 (not Kabat). Affinities are written as log10 Kd with Kd in nM; a lower number is a better binder. A pair that was not seen in that replicate is written "n.d."; this usually means weak binding, but a binder can also be missed. As a blank, each scFv also met three strains without target: over all light chain designs, 4% of these pairings were detected, typically at 2.64 and seldom below 1.59. For each scFv, signals with the empty controls are counted beside the result, with their mean in brackets.

changes | log10 Kd, replicates | control signals
V29T Y31E E32N W56A Q95Y | n.d. / n.d. / n.d. / n.d. / n.d. / n.d. | 1/18 (1.81)
Q27D Y31R N37Y | n.d. / n.d. / n.d. / 4.68 / n.d. / n.d. | 2/18 (2.70)
K24F R34E T59E H98Q | 2.80 / 1.91 / n.d. / n.d. / n.d. / 2.34 | 2/18 (2.97)
Q96W | n.d. / n.d. / n.d. / n.d. / n.d. / n.d. | 1/18 (0.90)
Q27E S38N A40W A57S S58K | 1.23 / 2.87 / 1.55 / 2.77 / n.d. / n.d. | 1/18 (2.84)
S25Q Y31L E32P S62Y | n.d. / n.d. / n.d. / n.d. / n.d. / n.d. | 0/18
K24L V29D W56N S103M | 0.72 / 0.17 / 0.42 / 0.09 / 0.30 / 0.47 | 1/18 (4.50)
Q95Y | n.d. / n.d. / n.d. / n.d. / n.d. / n.d. | 0/18
K36A Q96S H98Q | n.d. / n.d. / n.d. / 3.31 / n.d. / n.d. | 1/18 (1.95)
S62P R99V | n.d. / n.d. / n.d. / n.d. / n.d. / n.d. | 1/18 (2.00)
W56N A57G R99G | 1.04 / 1.22 / 1.03 / 1.13 / 1.26 / 1.46 | 1/18 (2.98)
S25I Y31D W56A E61A S62H | 0.32 / 0.30 / 0.09 / 0.20 / 0.20 / 0.41 | 2/18 (3.20)
S25V E32N | 1.04 / 0.50 / 0.47 / 1.03 / 0.73 / 0.72 | 0/18
S26Q S28L K36N W56G A57S | 0.70 / 0.44 / 0.69 / 0.30 / 0.38 / 0.64 | 2/18 (2.95)
S25T | 1.70 / 1.50 / 1.77 / 0.80 / 1.23 / 2.19 | 5/18 (2.47)
S33G R34K | n.d. / 0.86 / 2.36 / 1.77 / 1.42 / 0.87 | 0/18
S26I S62M R99G | n.d. / n.d. / n.d. / n.d. / n.d. / n.d. | 0/18
R34M W56K | n.d. / n.d. / n.d. / n.d. / n.d. / n.d. | 0/18
L30H W56D H98V S103F | 1.84 / 2.47 / 2.00 / 1.66 / n.d. / 1.29 | 0/18
S26Y Q96T | 1.16 / 1.44 / 0.02 / 0.97 / 1.85 / 0.32 | 0/18
Q27H V29H L102P | n.d. / n.d. / n.d. / n.d. / n.d. / n.d. | 0/18
S25M Q27G W56R | 0.80 / 1.05 / 0.53 / 0.59 / 0.65 / 0.94 | 1/18 (2.05)
S25V K36S W56K | 0.36 / 0.19 / 0.18 / 0.06 / 0.25 / 0.52 | 1/18 (3.27)
E32S A57G E61D H98S | 1.88 / n.d. / 1.27 / 2.58 / 2.13 / 0.95 | 1/18 (1.32)
S28A V29D R34N K36S | 1.71 / 1.52 / 1.30 / 1.54 / 2.02 / 1.20 | 1/18 (2.37)
S25M S28K Y31N K36Q | 2.14 / 1.81 / 1.52 / 1.51 / 1.96 / 1.54 | 3/18 (3.24)
Y31A H98A | 1.33 / 2.25 / n.d. / 0.81 / n.d. / 1.73 | 0/18
L30W K36A W56Q | 0.86 / 1.96 / 1.54 / 0.60 / 0.91 / 0.96 | 0/18
W56D Y97M H98P | 0.38 / 0.01 / 0.23 / 0.24 / 0.09 / 0.15 | 0/18
E61S R99K | 0.68 / 0.84 / 0.99 / 1.15 / 1.47 / 0.98 | 0/18
S25M Q27G S28L W56T S58N S103F | 2.60 / 1.51 / 2.07 / 1.55 / n.d. / 2.42 | 0/18
S26Q R34E S62N | n.d. / 1.86 / 1.29 / n.d. / 3.02 / 1.40 | 0/18
K24R L30Y W56D | 0.07 / 0.95 / 0.84 / 1.11 / 0.74 / 0.71 | 0/18
V29D S33G R34K W56R H98A | -0.05 / -0.28 / -0.13 / -0.14 / -0.26 / -0.20 | 1/18 (4.07)
K36P W56A R99K | 0.12 / 0.20 / 0.14 / 0.19 / -0.19 / 0.25 | 0/18
Q27N W56M H98T | n.d. / n.d. / n.d. / n.d. / n.d. / n.d. | 0/18
Y31I W56E S62N | 0.42 / 0.32 / 0.40 / 0.46 / 0.33 / 0.41 | 1/18 (2.07)
K36H A57D | n.d. / n.d. / n.d. / n.d. / 3.87 / n.d. | 0/18
W56G Q96E | 0.68 / 1.12 / 0.61 / 0.78 / 1.35 / 0.76 | 1/18 (2.68)
S25C V29H W56R L100P | 3.27 / n.d. / n.d. / n.d. / n.d. / n.d. | 1/18 (3.05)
S26R R34T L100D P101S | n.d. / n.d. / n.d. / n.d. / n.d. / n.d. | 0/18
S28G R34A N35M | 1.74 / 1.68 / 2.40 / 1.82 / 1.27 / n.d. | 0/18
S28D N35T | n.d. / 1.41 / n.d. / n.d. / 1.12 / n.d. | 0/18
V29W E32Y | n.d. / n.d. / n.d. / n.d. / n.d. / n.d. | 1/18 (0.85)
E32Q S33A H98K | n.d. / n.d. / n.d. / n.d. / n.d. / n.d. | 0/18
W56S L100I S103I | 0.67 / 2.86 / 1.83 / 1.68 / 1.11 / 1.66 | 1/18 (2.04)
W56N R99I | 1.33 / 1.52 / 1.74 / 1.70 / 1.25 / 1.73 | 0/18

The opening 6 entries, copied out:

{"changes": "V29T Y31E E32N W56A Q95Y", "log10 Kd, replicates": "n.d. / n.d. / n.d. / n.d. / n.d. / n.d.", "control signals": "1/18 (1.81)"}
{"changes": "Q27D Y31R N37Y", "log10 Kd, replicates": "n.d. / n.d. / n.d. / 4.68 / n.d. / n.d.", "control signals": "2/18 (2.70)"}
{"changes": "K24F R34E T59E H98Q", "log10 Kd, replicates": "2.80 / 1.91 / n.d. / n.d. / n.d. / 2.34", "control signals": "2/18 (2.97)"}
{"changes": "Q96W", "log10 Kd, replicates": "n.d. / n.d. / n.d. / n.d. / n.d. / n.d.", "control signals": "1/18 (0.90)"}
{"changes": "Q27E S38N A40W A57S S58K", "log10 Kd, replicates": "1.23 / 2.87 / 1.55 / 2.77 / n.d. / n.d.", "control signals": "1/18 (2.84)"}
{"changes": "S25Q Y31L E32P S62Y", "log10 Kd, replicates": "n.d. / n.d. / n.d. / n.d. / n.d. / n.d.", "control signals": "0/18"}

The authors averaged sequences with at least three values out of six and counted those with two or fewer as poor binders. The range of this assay differs from that of the first round, and the authors advise against merging the two. The parent sequence was in this pool as ten entries: three were never detected, three once, and four in most replicates, with averages from 0.34 to 2.37.